Results: ChEMBL document CHEMBL5154825, “Discovery of V-0219: A Small-Molecule Positive Allosteric Modulator of the Glucagon-Like Peptide-1 Receptor toward Oral Treatment for "Diabesity"” (J Med Chem, 2022)
Active and inactive are the calls of the source. No cut-off for these calls is given here.

Molecular target: T1, Glucagon-like peptide 1 receptor (Rattus norvegicus) (UniProt P32301)
T1 sequence (whole entry): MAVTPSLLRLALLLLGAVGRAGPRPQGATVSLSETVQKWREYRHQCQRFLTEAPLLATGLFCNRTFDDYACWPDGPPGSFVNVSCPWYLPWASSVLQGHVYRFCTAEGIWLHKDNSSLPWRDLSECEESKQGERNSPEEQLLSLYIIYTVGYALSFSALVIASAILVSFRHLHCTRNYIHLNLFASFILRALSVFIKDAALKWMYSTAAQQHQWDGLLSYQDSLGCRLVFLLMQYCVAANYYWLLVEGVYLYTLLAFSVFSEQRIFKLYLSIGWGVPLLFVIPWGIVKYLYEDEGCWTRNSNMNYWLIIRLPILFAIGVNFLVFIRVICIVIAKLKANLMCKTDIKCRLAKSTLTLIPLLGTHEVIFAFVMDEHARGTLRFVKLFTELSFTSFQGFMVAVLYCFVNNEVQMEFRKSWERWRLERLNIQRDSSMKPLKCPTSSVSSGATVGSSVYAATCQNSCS
Assay: Positive allosteric modulator activity at GLP-1R in rat INS1 beta-cells assessed potentiation of GLP-1(7-36)NH2 induced insulin secretion at 1 uM incubated for 30 mins in presence of 15 mM of glucose by ELISA
Type: cell-based
Conditions: filed as positive allosteric modulator
Summary of the method: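 Rat INS-1 cells held in glucose-free medium for 1.5 h (100,000 cells/well). […] Medium was centrifuged at 4 °C and secreted insulin measured by ELISA.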

Activity: Active
Structure (SMILES): FC(F)(F)c1ccc(-c2noc(CN3CCCC(CN4CCOCC4)C3)n2)cc1 (stereo unspecified)
